Columns and labels:
[1] = tested on: N87 (human gastric cancer cells); test: In vitro proliferation inhibition of N87 tumor cells (MTS); format: cell-based; conditions: 5 days
Protocol: (§1) 1) Experimental Materials • Cells: from the cell bank of the Chinese Academy of Sciences; • Tumor cell culture medium: Gibco; • FBS: BIOWEST;
(§2) 2) Preparation of Medium • Growth medium (with 10% FBS, Penicillin/streptomycin (100 U/mL); • Detection medium (with 1% FBS, Penicillin/streptomycin (100 U/mL);
(§3) Turn on the UV lamp in the biological safety cabinet 30 minutes in advance, and ventilate for 3 minutes. Put the growth medium, detection medium, D-PBS and pancreatin into a 37° C. constant temperature water bath to preheat, then disinfect the surface with alcohol and put it in a biological safety cabinet. Select cells with a confluence of ˜80% (logarithmic growth phase), put them in a biological safety cabinet, aspirate the old medium, rinse with D-PBS, aspirate and discard, digest with trypsin for 2 to 3 minutes, and then add to growth Stop trypsin in the medium, and centrifuge at 500×g for 5 min. Aspirate the centrifugal supernatant, mix well with 4 mL detection medium, take 100 uL for counting (take out 50 uL cell fluid, add 50 μL 0.4% Trypan Blue Stain and mix well, and count after mixing). […]
(§4) Take out the MTS reagent after the test sample is exposed for 5 days. […] After the reaction, the 96-well plate was taken out, the OD490 nm absorbance value was detected in the microplate reader, and the data was recorded, sorted, and stored.

[2] = tested on: NCI-H1975 (human non-small cell lung cancer adenocarcinoma cells) subcutaneously transplanted tumor; test: In vivo efficacy on NCI-H1975 xenograft tumors; parameters: species or system Balb/c-nu nude mice; conditions: NCI-H1975, 11.25 mg/kg, tail vein injection
Text: (§5) 1) Experimental Materials • Cells: from the cell bank of the Chinese Academy of Sciences; • Tumor cell culture medium: Gibco; • Balb/c-nu nude mice: female, 5-7 weeks (the age of mice at the time of tumor cell inoculation), weighing 18.0-24.0 g, 170 (110 plus 60 surplus mice). Purchased from Beijing Weitong Lihua Laboratory Animal Technology Co., Ltd.; • Test substance and reference substance: • Test products: ADC-61 and ADC-6 were provided by Chengdu Dote Antibody Drug Co., Ltd. • Histidine buffer, provided by Chengdu Dote Antibody Pharmaceutical Co., Ltd. • 0.9% Sodium Chloride Injection: Kelun Pharmaceutical Co., Ltd.
NCI-H1975 (human non-small cell lung cancer adenocarcinoma cells) were cultured in RPMI1640 medium. NCI-H1975 cells in the exponential growth phase were collected and resuspended in RPMI1640 medium to a suitable concentration for subcutaneous tumor inoculation in mice.
(§6) 85 female nude mice were inoculated subcutaneously on the right shoulder with 5×10^7 NCI-H1975 cells. When the average tumor volume is about 170 mm^3, they are randomly grouped according to the tumor size. Fifty-five tumor-bearing mice with appropriate tumor volume were selected and randomly divided into groups and the administration was started (tail vein injection, the administration volume was 0.1 ml/10 g). The grouping day is defined as day 0.
(§7) In the course of this experiment, the animal experiment operation was in accordance with the requirements of the standard operating procedures for the in vivo screening of anti-tumor drugs. After tumor inoculation, routine monitoring includes tumor growth (the tumor is measured twice a week) and the effect of treatment on the normal behavior of the animal. The specific content includes the activity of the experimental animal, food and drinking status, weight gain or loss (weight is measured weekly 2 times), eyes, coat and other abnormal conditions. The clinical symptoms observed during the experiment were recorded in the original data. Tumor volume calculation formula: tumor volume (mm^3)=½×(a×b^2) (where a represents the long diameter and b represents the short diameter). Manually recorded data was used in the experiment, including the measurement of the length and short diameter of the tumor and the weighing of the animal's weight.
(§8) The relative tumor proliferation rate, T/C %, is the percentage value of the treatment group and the control group relative to the tumor volume or tumor weight at a certain point in time. Calculated as follows:
(§9) T/C %=TRTV/CRTV×100% (TRTV: average RTV in the treatment group; CRTV: average RTV in the vehicle control group; RTV=Vt/V0, V0 is the tumor volume of the animal at the time of grouping, and Vt is the aminal's tumor volume after treatment Tumor volume); or T/C %=TTW/CTW×100% (TTW: average tumor weight at the end of the experiment in the treatment group; CTW: average tumor weight at the end of the experiment in the vehicle control group).
(§10) [T and C are the relative tumor volume (RTV) or tumor weight (TW) of the treatment group and the control group at a specific time point, respectively].

[3] = tested on: NCI-N87 (human gastric cancer cells) subcutaneously transplanted tumor; test: In vivo efficacy on NCI-N87 xenografts; parameters: species or system Balb/c-nu nude mice; conditions: NCI-N87, 11.25 mg/kg (naked antibody), tail vein injection
Text: as §5
NCI-N87 (human gastric cancer cells) were cultured in RPMI1640 medium. NCI-N87 cells in the exponential growth phase were collected, and RPMI1640 medium was resuspended to a suitable concentration for subcutaneous tumor inoculation in mice.
as §6, with “5×10^7 NCI-N87” for “5×10^7 NCI-H1975”, “is” for “is about”, “170 mm” for “170 mm^3,”, “day 0,” for “day 0.”
as §7, §8, §9, §10

[4] = tested on: SK-BR-3 (human breast adenocarcinoma cells); test: In vitro proliferation inhibition of SK-BR-3 tumor cells (MTS); format: cell-based; conditions: SK-BR-3 cells, 5 days
Protocol: as §1, §2, §3, §4

## Trastuzumab: naked antibody, anti-HER2 monoclonal antibody (trade name Herceptin), SEQ ID NO: 1 and 2
[1]
  IC50: > 500 nM
[2]; D 0
  Average Tumor Volume: 172.19 mm^3
[2]; D 3
  Average Tumor Volume: 296.69 mm^3
[2]; D 7
  Average Tumor Volume: 627.87 mm^3
[2]; D 10
  Average Tumor Volume: 887.25 mm^3
[2]; D 14
  Average Tumor Volume: 1094.88 mm^3
[2]; D 17
  Average Tumor Volume: 1458.59 mm^3
[2]; D 21
  Average Tumor Volume: 1659.49 mm^3
[2]; D 24
  Average Tumor Volume: 1893.14 mm^3
[2]; D 28
  Average Tumor Volume: 1795.55 mm^3
[2]; D 31
  Average Tumor Volume: 1900.54 mm^3
[3]; D 0
  Average Tumor Volume: 180.57 mm^3
[3]; D 3
  Average Tumor Volume: 226.45 mm^3
[3]; D 7
  Average Tumor Volume: 322.76 mm^3
[3]; D 10
  Average Tumor Volume: 445.83 mm^3
[3]; D 14
  Average Tumor Volume: 542.50 mm^3
[3]; D 17
  Average Tumor Volume: 631.28 mm^3
[3]; D 21
  Average Tumor Volume: 725.55 mm^3
[3]; D 24
  Average Tumor Volume: 848.82 mm^3
[3]; D 28
  Average Tumor Volume: 942.65 mm^3
[3]; D 31
  Average Tumor Volume: 1004.93 mm^3
[4]
  IC50: > 500 nM
